Activity calls are given as the source filed them. The calls are words filed in the database; no cut-off is given here.

Protein sequences, listed by entry. Tags and fused reporters are not part of them.
UniProt P27695, whole entry: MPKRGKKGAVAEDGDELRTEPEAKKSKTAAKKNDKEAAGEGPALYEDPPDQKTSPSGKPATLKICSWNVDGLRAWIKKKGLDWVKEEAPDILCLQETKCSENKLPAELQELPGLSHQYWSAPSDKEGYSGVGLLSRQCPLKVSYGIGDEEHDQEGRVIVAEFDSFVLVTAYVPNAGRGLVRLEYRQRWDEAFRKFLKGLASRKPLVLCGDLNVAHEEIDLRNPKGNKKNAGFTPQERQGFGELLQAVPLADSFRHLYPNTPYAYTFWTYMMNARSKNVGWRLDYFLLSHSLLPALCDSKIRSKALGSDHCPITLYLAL

For the assay, the target named is DNA repair nuclease/redox regulator APEX1 (Homo sapiens, UniProt P27695). Description: Inhibition of Ape1/ref-1 endonuclease activity up to 100 uM.

For `C/C(=C\C1=C(Br)C(=O)c2ccccc2C1=O)C(=O)O`, the inhibition entry was “inactive”.

The values above are taken from ChEMBL document CHEMBL1156823, “Design and synthesis of novel quinone inhibitors targeted to the redox function of apurinic/apyrimidinic endonuclease 1/redox enhancing factor-1 (Ape1/ref-1)” (J Med Chem, 2010).
